{
  "source": "paper PMC8279415",
  "about": "“Targeting Acute Myelogenous Leukemia Using Potent Human Dihydroorotate Dehydrogenase Inhibitors Based on the 2-Hydroxypyrazolo[1,5-a]pyridine Scaffold: SAR of the Biphenyl Moiety” (Journal of Medicinal Chemistry, 2021)",
  "system": "THP1 cells",
  "assay": "Annexin V apoptosis assay in THP1",
  "settings": "read-out: apoptosis EC50 THP1 (CL 95%), 3 days",
  "data": [
    {"smiles": "Cc1c(-c2ccc(-c3ccccc3F)cc2)nc2ccc(F)cc2c1C(=O)O", "note": "[Brequinar, reference compound]", "values": [
      {"measurement": "EC50", "value": 264, "unit": "nM"}
    ]}
  ]
}
